From patent publication US20070202156A1
Only a part of the results on these compounds is given; other tests are left out.

Legend:
[1] = Solubility of Sufentanil in additive (permeation enhancer); settings: 30 min stirring
[2] = cited from earlier work

Structure (SMILES): CCC(=O)N(c1ccccc1)C1(COC)CCN(CCc2cccs2)CC1
- Solubility ([1]; in Ethyl oleate, room temperature (around 25° C.)): 44.8 mg/g
- Solubility ([1]; in Isopropyl myristate, room temperature (around 25° C.)): 44.9 mg/g
- Solubility ([1]; in Isopropyl palmitate, room temperature (around 25° C.)): 36.7 mg/g
- Solubility ([1]; in Isostearyl alcohol, room temperature (around 25° C.)): 65.5 mg/g
- Solubility ([1]; in Octyldodecanol, room temperature (around 25° C.)): 60.2 mg/g
- Solubility ([1]; in Polysorbate 80, room temperature (around 25° C.)): 36.9 mg/g
- Solubility ([1]; in Sorbitan trioleate, room temperature (around 25° C.)): 103.8 mg/g
- lipid solubility (log p) [2]: 3.95
